Laboratory results reported in PMC7473305 (Frontiers in Immunology, 2020).

Sequences of proteins named here, by UniProt entry; tags and fusion partners are left off. Residues count along the entry.
UniProt Q16552, 24-155: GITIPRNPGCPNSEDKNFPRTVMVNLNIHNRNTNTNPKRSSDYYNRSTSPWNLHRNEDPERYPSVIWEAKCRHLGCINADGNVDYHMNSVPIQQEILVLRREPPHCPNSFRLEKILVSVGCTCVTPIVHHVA
UniProt Q96PD4, 31-163: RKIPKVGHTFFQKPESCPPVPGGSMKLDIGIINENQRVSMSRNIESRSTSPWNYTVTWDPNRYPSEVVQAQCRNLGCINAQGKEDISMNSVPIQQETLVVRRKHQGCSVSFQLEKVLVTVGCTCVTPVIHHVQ

Assays:
[1] = biological target: T1, human IL-17A (generated at UCB) (Homo sapiens, UniProt Q16552); assay: SPR; Biacore T200, CM5 chip; Fab captured on immobilised anti-human F(ab')2; cytokine titrated over it; HBS-EP pH 7.4, 25°C; details: both partners purified
T1 construct: interleukin-17A, human; The expression method is told for the neutralization bioassay; Residues of the TEV site may be left at the C-terminus; also called Interleukin-17A; source: generated at UCB; CHO-S XE cells, transient, purified (Protein A, Fc removed with TEV protease, SEC of the dimer); not shown: Fc (human IgG1), C-terminal, cleaved

[2] = biological target: T2, human IL-17F (R&D Systems) (Homo sapiens, UniProt Q96PD4); assay: as above; details: both partners purified
T2 construct: interleukin-17F, human; Used in SPR; the functional rows are written on this molecule; source: bought: R&D Systems

B1: 496.g1 Fab (Fab, V domains shown)
VH: EVQLVESGGGLVQPGGSLRLSCAASGFTFSDYNMAWVRQAPGKGLEWVATITYEGRNTYYRDSVKGRFTISRDNAKNSLYLQMNSLRAEDTAVYYCASPPQYYEGSIYRLWFAHWGQGTLVTVSS
VL: AIQLTQSPSSLSASVGDRVTITCRADESVTTLMHWYQQKPGKAPKLLIYLVSNRESGVPSRFSGSGSGTDFTLTISSLQPEDFATYYCQQTWSDPWTFGQGTKVEIK
Q: B1 was tested. Which koff [1] did it give?
A: Its koff is 5.63e-05 s⁻¹.

Q: What about the kon [1] of the same binder?
A: The kon was 1.93e+06 M⁻¹ s⁻¹.

Q: And the koff [2]?
A: The koff was 0.00603 s⁻¹.

Q: What about the kon [2] of the same binder?
A: The kon was 4e+06 M⁻¹ s⁻¹.
